In ChEMBL document CHEMBL4622874, “Discovery of ORN0829, a potent dual orexin 1/2 receptor antagonist for the treatment of insomnia” (Bioorg Med Chem, 2020) one finds IC50 data, which are given here for four molecules.

Chains of the proteins cited; added tags and fusions are not shown.
UniProt O43614, whole entry: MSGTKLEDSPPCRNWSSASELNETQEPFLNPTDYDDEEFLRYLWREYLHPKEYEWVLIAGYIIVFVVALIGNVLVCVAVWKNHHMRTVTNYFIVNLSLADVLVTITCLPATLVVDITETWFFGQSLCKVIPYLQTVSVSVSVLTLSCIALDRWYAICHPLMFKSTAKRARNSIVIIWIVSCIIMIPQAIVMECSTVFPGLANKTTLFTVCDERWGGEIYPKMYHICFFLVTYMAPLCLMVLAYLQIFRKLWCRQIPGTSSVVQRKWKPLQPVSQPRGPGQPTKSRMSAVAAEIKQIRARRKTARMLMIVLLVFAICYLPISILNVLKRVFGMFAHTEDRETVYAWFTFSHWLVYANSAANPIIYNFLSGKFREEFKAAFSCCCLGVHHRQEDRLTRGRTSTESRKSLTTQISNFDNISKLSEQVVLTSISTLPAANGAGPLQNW

pIC50: −log10 of the molar value.

As a reminder, the pIC50 is the negative decadic logarithm of the IC50, by convention in mol/L.

In this experiment the target is Orexin receptor type 2 (Homo sapiens, UniProt O43614). Put plainly: Antagonist activity at human recombinant OX2R expressed in CHOK1 cells assessed as inhibition of orexin A-induced intracellular Ca2+ release preincubated for 30 mins followed by orexin-A stimulation by Fluo-4AM dye based fluorescence analysis. The experiment is classed as functional, cell-based, CHO-K1.
`Cc1ccc(-n2nccn2)c(C(=O)N2CCCO[C@H]2Cc2cnn(-c3ccc(F)cn3)c2)c1`: the pIC50 is 8.69. For the molecule `Cc1ccc(-n2nccn2)c(C(=O)N2CCCO[C@H]2Cn2cc(-c3ccc(F)cn3)cn2)c1`, the pIC50 is 8.66.

`Cc1ccc(-n2nccn2)c(C(=O)N2CCO[C@H]2Cn2ccc(-c3ccc(F)cn3)n2)c1`: the pIC50 is 7.92. `Cc1ccc(-n2nccn2)c(C(=O)N2CCO[C@@H]2Cn2ccc(-c3ccc(F)cn3)n2)c1`: the negative logarithm of the IC50 (pIC50) is 5.63.
